Common to all, as to assay type: biochemical
The target of one assay is T1, N209K NAEβ mutant NAE (Homo sapiens, UniProt Q8TBC4, N209K).
T1 construct: His; made in house; host or cells: E. coli Rosetta (DE3), co-expression
As to the kind of experiment: Pyrophosphate (ATP-PPi) exchange assay.

The chains behind the UniProt entries cited, without tags or fusion partners.
UniProt Q8TBC4, whole entry N209K: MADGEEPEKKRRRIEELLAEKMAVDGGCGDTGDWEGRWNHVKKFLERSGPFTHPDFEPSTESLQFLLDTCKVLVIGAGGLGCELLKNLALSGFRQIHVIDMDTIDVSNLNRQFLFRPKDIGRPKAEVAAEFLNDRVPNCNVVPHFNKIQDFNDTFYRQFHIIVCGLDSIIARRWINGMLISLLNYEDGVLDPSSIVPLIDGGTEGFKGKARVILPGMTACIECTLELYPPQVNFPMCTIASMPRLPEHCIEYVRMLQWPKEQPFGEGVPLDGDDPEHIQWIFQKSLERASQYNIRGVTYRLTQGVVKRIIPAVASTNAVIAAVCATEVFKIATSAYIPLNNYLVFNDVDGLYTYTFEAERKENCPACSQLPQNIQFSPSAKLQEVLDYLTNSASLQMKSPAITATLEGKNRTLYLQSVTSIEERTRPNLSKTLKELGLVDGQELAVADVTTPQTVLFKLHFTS
UniProt Q8TBC4, whole entry A171T: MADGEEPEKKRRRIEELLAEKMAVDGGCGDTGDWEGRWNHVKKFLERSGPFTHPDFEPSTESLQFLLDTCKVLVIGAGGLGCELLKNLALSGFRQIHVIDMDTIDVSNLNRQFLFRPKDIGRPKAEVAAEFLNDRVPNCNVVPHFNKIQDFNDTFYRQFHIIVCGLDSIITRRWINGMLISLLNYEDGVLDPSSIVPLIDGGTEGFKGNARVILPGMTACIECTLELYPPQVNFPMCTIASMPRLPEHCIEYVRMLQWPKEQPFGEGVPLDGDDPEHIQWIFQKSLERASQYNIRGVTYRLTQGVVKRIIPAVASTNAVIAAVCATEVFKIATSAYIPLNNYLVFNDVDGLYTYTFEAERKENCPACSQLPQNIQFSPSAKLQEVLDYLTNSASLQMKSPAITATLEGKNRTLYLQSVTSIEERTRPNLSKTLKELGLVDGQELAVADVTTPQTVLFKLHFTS
UniProt Q8TBC4, whole entry A171D: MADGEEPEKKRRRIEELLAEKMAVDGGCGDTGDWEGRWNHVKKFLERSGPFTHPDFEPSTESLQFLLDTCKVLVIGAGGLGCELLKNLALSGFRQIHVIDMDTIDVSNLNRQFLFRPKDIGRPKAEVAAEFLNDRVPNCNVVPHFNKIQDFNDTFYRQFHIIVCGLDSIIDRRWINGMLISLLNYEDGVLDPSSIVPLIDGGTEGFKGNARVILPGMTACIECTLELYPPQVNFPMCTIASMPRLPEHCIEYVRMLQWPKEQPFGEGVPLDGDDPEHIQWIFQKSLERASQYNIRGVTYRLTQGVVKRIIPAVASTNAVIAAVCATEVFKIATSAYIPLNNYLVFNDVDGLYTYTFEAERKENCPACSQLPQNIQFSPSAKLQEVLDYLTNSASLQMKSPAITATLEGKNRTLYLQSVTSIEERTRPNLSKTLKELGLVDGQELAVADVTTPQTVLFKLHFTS
UniProt Q8TBC4, whole entry G201V: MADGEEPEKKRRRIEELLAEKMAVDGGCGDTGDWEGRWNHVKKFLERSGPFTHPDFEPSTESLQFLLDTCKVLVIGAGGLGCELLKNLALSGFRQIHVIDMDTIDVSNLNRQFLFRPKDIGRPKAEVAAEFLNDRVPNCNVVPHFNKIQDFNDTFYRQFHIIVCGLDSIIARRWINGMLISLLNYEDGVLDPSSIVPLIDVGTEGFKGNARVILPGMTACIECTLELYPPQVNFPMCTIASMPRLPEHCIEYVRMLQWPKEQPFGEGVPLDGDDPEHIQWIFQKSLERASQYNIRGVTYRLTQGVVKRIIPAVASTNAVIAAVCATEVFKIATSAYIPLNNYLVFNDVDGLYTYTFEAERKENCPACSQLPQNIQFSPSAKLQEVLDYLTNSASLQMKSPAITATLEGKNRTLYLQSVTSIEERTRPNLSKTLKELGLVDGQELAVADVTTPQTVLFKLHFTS

The next assay has as its target T2, A171T NAEβ mutant NAE (Homo sapiens, UniProt Q8TBC4, A171T).
T2 construct: His; made in house; host or cells: E. coli Rosetta (DE3), co-expression
As to the kind of experiment: Pyrophosphate (ATP-PPi) exchange assay.

The target of another assay is T3, A171D NAEβ mutant NAE (Homo sapiens, UniProt Q8TBC4, A171D).
T3 construct: made in house; host or cells: Sf9 insect cells, co-infection
The experiment in a line: Pyrophosphate (ATP-PPi) exchange assay. The following applies: A171D NAE 5 nM, 1 mM ATP.

A further assay addresses T4, G201V NAEβ mutant NAE (Homo sapiens, UniProt Q8TBC4, G201V).
T4 construct: His; made in house; host or cells: E. coli Rosetta (DE3), co-expression
As to the kind of experiment: Pyrophosphate (ATP-PPi) exchange assay. The following applies: G201V NAE 5 nM, 1 mM ATP.

For a further assay, the target named is T5, A573D UBA6 (Homo sapiens, UniProt A0AVT1, A573D).
T5 construct: His6 (N); made in house; host or cells: Sf9 insect cells (baculovirus, single infection)
T5 sequence (A0AVT1 1-1052 A573D): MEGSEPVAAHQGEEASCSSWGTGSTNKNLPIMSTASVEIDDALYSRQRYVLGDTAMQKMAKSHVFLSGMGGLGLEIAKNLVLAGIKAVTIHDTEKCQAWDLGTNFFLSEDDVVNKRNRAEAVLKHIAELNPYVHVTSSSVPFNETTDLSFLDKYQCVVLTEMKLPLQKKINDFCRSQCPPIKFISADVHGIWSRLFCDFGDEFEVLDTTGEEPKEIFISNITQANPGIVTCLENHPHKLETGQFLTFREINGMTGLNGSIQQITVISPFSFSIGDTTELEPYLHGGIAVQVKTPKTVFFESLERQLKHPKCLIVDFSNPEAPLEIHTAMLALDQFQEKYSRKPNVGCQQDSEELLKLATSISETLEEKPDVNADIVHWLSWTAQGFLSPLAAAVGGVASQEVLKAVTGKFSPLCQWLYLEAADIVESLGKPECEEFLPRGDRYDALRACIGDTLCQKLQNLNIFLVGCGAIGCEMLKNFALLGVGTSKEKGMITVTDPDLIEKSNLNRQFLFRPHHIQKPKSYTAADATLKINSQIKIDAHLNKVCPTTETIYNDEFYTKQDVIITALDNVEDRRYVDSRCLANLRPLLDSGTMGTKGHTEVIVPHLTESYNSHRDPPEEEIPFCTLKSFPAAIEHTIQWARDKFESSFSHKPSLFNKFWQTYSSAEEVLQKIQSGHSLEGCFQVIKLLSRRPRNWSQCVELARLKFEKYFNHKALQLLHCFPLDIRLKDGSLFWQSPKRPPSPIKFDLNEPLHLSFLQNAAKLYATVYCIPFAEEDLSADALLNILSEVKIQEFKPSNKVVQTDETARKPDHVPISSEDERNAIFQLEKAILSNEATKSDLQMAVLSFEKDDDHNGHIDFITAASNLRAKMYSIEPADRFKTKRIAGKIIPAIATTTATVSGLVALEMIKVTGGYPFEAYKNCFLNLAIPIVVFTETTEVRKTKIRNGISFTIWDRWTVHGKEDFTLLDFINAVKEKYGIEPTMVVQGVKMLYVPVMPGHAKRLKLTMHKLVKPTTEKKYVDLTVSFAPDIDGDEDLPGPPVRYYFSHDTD
As to the kind of experiment: UBA6 pyrophosphate exchange assay. The following applies: A573D UBA6 5 nM, 1 mM ATP, 4 μM ubiquitin. How it is done:
(§1) ATP and PPi titrations were run under similar condition, except ubiquitin was fixed at 4 μM. […] ATP standard curve.
(§2) Reactions were initiated with addition of 4 μM ubiquitin.

The next assay addresses T6, wild-type UBA6 (Homo sapiens, UniProt A0AVT1).
T6 construct: His6 (N); made in house; host or cells: Sf9 insect cells (baculovirus, single infection)
T6 sequence (A0AVT1 1-1052): T5 sequence (A0AVT1 1-1052 A573D) with D573A
As to the kind of experiment: UBA6 pyrophosphate exchange assay. The following applies: wt UBA6 5 nM, 1 mM ATP, 4 μM ubiquitin, 60 minutes at 30° C. How it is done: as §1, §2

The target of a further assay is T7, A573T UBA6 (Homo sapiens, UniProt A0AVT1, A573T).
T7 construct: His6 (N); made in house; host or cells: Sf9 insect cells (baculovirus, single infection)
T7 sequence (A0AVT1 1-1052 A573T): T5 sequence (A0AVT1 1-1052 A573D) with D573T
The experiment in a line: UBA6 pyrophosphate exchange assay. The following applies: A573T UBA6 5 nM, 1 mM ATP, 4 μM ubiquitin. How it is done:
as §1, §2

The target of the next assay is T8, wt NAE (Homo sapiens, UniProt Q8TBC4).
T8 construct: His; made in house; host or cells: E. coli Rosetta (DE3), co-expression
The experiment in a line: Pyrophosphate (ATP-PPi) exchange assay.

The term IC50 denotes the concentration that inhibits the measured activity by half. Read a high IC50 as weaker potency.

Residue numbers refer to the chain shown, from its start.

Take `Nc1ncnc2c1ncn2[C@@H]1O[C@H](COS(N)(=O)=O)[C@@H](O)[C@H]1O` [Adenosine sulfamate, adenosine sulfamate]: the IC50 amounted to 120 ± 13 nM against N209K NAEβ mutant NAE (N209K NAE 5 nM, 1 mM ATP); 8 ± 9 nM on A171T NAEβ mutant NAE; 34 ± 4 nM against A171D NAEβ mutant NAE; 220 ± 6 nM against G201V NAEβ mutant NAE; 360 ± 20 nM against A573D UBA6; 42 ± 2 nM at wild-type UBA6. The IC50 came to 27 ± 2 nM on A573T UBA6 and 5 ± 0.2 nM at wt NAE (wt NAE 5 nM, 1 mM ATP, 60 minutes at 37° C.). Further, the kinact/KI on N209K NAEβ mutant NAE (N209K NAEβ, PPi-ATP exchange assay at 1 mM ATP, read-out: kinact/Ki (rate of inactivation)) is 1200 M⁻¹ s⁻¹; on A171T NAEβ mutant NAE (A171T NAEβ, PPi-ATP exchange assay at 1 mM ATP, read-out: kinact/Ki (rate of inactivation)), 20900 M⁻¹ s⁻¹; on wt NAE (wt NAEβ, PPi-ATP exchange assay at 1 mM ATP, 95% confidence limit, read-out: kinact/Ki (rate of inactivation)) it was 25800 M⁻¹ s⁻¹.

Source of the values: US20170107579A1, “E1 ENZYME MUTANTS AND USES THEREOF” (Millennium Pharmaceuticals, Inc., priority 2011, published 2017).
